Consider two compounds from patent US10570118B2, “Isoquinolones as BTK inhibitors” (Boehringer Ingelheim International GmbH, priority 2016, dated 2020).

The chains behind the UniProt entries cited, without tags or fusion partners.
UniProt Q06187, whole entry: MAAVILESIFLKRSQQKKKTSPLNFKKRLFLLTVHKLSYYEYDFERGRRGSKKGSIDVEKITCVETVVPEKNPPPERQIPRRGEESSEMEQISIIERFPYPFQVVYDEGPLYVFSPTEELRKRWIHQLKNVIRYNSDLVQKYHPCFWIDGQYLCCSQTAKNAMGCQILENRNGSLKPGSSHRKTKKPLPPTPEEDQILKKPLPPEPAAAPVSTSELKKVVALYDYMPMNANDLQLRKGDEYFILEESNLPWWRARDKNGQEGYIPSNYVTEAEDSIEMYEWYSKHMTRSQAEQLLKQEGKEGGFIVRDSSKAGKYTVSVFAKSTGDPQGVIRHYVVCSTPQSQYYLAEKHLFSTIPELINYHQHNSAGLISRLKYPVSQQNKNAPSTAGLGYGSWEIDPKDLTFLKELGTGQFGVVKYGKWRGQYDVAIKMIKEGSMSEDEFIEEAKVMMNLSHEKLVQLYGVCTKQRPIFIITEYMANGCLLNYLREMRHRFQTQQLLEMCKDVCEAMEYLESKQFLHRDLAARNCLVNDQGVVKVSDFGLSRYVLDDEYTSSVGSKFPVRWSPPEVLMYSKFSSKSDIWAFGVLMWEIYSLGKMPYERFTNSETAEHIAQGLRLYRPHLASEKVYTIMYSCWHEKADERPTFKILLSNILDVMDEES

For this test, the target named is human full length His-tagged BTK (Homo sapiens (Human), UniProt Q06187). Kind of test: BTK Lanthscreen Eu Kinase Binding assay. Particulars: read-out: BTK IC50; TR-FRET tracer displacement, 2 nM BTK, 30 min pre-incubation. Here is the method:
BTK Lanthscreen® Eu Kinase Binding assay:
A Lanthscreen® Eu Kinase Binding assay (Life Technologies) was performed to quantitate the ability of test compounds to bind to BTK. The assay is based on the binding and displacement of Alexa Fluor647-labeled Kinase Tracer #236 to the ATP-binding site of human full length His-tagged BTK (Life Technologies cat # PV3587) with TR-FRET detection using a europium-labeled anti-His antibody. The assay was assembled in 384-well low volume NBS black plates (Corning) where 2 nM BTK and test compound in DMSO at varying concentrations were pre-incubated for 30 min at 28° C. in assay buffer consisting of 50 mM HEPES, pH 7.4, 10 mM MgCl2, 1 mM EGTA. 100 μM Na3VO4 and 0.01% Brij 35. Then, 2 nM of Eu-anti His antibody and 30 nM Kinase Tracer were added and incubated for […] at 28° C. Following incubation, TR-FRET signal was read on an Envision plate reader (Excitation: 340 nm; Emissions: 615 and 665 nm). The 665: 615 nm emission ratio was calculated and converted to POC compared to control and blank wells.
(In TR-FRET formats the signal depends on donor and acceptor labels being close together.)

The IC50 is the concentration that gives 50% inhibition.

On to `CC#CC(=O)N1CCC1Cc1cc2cc(C3CC3)ccc2c(=O)n1-c1cccc(-c2cc(C(N)=O)n(C)c2)c1CO` (centres unmarked), for which the IC50 came out at 110 nM.

For `C=CC(=O)N1CC(c2cc3cc(C4CC4)ccc3c(=O)n2-c2cccc(-c3ccc4[nH]ncc4c3)c2CO)C1`, the IC50 amounted to 3.1 nM.
